The target of assay [1] is Mitogen-activated protein kinase 10 (Homo sapiens, UniProt P53779). The experiment in a line: Inhibition of recombinant JNK3 after 60 mins by TR-FRET assay. Background: Time-resolved FRET reads energy transfer from a long-lived donor to a nearby acceptor.
In assay [2] the target is Mitogen-activated protein kinase 8 (Homo sapiens, UniProt P45983). As to the kind of experiment: Inhibition of recombinant JNK1 after 60 mins by TR-FRET assay.

Protein sequences, listed by entry. Tags and fused reporters are not part of them. Lines headed by an entry give the natural chain unless they say otherwise; changes in a name come on top.
UniProt P53779: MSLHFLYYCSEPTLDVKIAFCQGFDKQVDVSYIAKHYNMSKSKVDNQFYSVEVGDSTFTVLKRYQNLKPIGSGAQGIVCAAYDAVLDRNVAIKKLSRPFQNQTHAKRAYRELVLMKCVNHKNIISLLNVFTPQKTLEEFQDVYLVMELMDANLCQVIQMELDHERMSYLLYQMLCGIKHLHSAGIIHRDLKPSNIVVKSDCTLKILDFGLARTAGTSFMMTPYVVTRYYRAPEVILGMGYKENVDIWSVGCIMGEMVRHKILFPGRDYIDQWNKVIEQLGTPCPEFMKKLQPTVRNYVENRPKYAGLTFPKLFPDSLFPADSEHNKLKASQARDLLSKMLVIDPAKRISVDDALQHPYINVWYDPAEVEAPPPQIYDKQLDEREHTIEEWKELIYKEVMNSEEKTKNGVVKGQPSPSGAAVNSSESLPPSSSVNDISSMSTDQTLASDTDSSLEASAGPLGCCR
UniProt P45983: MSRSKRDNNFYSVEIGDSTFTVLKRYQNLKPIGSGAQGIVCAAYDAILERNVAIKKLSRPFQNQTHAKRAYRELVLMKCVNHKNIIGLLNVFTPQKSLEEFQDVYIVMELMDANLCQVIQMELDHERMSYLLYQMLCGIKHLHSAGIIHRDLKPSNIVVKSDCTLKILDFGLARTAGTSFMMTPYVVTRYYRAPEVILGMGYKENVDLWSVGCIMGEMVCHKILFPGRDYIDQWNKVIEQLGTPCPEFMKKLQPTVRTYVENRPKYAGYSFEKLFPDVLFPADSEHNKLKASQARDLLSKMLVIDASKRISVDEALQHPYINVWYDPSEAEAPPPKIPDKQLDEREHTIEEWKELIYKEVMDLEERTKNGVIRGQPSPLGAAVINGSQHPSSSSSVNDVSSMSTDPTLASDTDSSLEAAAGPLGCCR

A word on the IC50: it is the concentration needed to halve the response being measured.

As to `O=C(Cc1cccc2ccccc12)Nc1ccsc1-c1cc[nH]n1`, in assay [1], the IC50 was found to be 3600 nM. As to `Cc1cc(-c2sccc2NC(=O)Cc2cccc3ccccc23)n[nH]1`, the IC50 came to 3400 nM in assay [2] and 9400 nM in assay [1]. For the compound `COc1ccc(CC(=O)Nc2ccsc2-c2ncco2)cc1`, the IC50 in assay [2] was determined as 220 nM; in assay [1], 800 nM. In the case of `COC(=O)c1sccc1NC(=O)Cc1cccs1`, the IC50 in assay [1] worked out at 2200 nM.

For the origin of these results see ChEMBL document CHEMBL1287787, “Design and synthesis of disubstituted thiophene and thiazole based inhibitors of JNK” (Bioorg Med Chem Lett, 2010).
